The target of assay [1] is T1, Methylcytosine dioxygenase TET1 (Homo sapiens, UniProt Q8NFU7).
The species named for assay [2] is Homo sapiens. Kind of assay: Inhibition of N-terminal His-tagged recombinant human TET2 catalytic domain LCIdel mutant (D1129 to G1936 residues with Y1481 to N1843 replaced by a 3 x GGGGS linker) expressed in Escherichia coli BL21 (DE3) using 5-methylcytosine as substrate at 100 uM preincubated for 10 mins followed by DNA-cofactor addition and measured after 10 mins by Alphascreen assay relative to control. The following applies: time 20.0 min. On the technique in general: In Alpha technology, singlet oxygen from a donor bead excites a nearby acceptor bead.

Protein sequences, listed by entry. Tags and fused reporters are not part of them. Lines headed by an entry give the natural chain unless they say otherwise; changes in a name come on top.
UniProt Q8NFU7: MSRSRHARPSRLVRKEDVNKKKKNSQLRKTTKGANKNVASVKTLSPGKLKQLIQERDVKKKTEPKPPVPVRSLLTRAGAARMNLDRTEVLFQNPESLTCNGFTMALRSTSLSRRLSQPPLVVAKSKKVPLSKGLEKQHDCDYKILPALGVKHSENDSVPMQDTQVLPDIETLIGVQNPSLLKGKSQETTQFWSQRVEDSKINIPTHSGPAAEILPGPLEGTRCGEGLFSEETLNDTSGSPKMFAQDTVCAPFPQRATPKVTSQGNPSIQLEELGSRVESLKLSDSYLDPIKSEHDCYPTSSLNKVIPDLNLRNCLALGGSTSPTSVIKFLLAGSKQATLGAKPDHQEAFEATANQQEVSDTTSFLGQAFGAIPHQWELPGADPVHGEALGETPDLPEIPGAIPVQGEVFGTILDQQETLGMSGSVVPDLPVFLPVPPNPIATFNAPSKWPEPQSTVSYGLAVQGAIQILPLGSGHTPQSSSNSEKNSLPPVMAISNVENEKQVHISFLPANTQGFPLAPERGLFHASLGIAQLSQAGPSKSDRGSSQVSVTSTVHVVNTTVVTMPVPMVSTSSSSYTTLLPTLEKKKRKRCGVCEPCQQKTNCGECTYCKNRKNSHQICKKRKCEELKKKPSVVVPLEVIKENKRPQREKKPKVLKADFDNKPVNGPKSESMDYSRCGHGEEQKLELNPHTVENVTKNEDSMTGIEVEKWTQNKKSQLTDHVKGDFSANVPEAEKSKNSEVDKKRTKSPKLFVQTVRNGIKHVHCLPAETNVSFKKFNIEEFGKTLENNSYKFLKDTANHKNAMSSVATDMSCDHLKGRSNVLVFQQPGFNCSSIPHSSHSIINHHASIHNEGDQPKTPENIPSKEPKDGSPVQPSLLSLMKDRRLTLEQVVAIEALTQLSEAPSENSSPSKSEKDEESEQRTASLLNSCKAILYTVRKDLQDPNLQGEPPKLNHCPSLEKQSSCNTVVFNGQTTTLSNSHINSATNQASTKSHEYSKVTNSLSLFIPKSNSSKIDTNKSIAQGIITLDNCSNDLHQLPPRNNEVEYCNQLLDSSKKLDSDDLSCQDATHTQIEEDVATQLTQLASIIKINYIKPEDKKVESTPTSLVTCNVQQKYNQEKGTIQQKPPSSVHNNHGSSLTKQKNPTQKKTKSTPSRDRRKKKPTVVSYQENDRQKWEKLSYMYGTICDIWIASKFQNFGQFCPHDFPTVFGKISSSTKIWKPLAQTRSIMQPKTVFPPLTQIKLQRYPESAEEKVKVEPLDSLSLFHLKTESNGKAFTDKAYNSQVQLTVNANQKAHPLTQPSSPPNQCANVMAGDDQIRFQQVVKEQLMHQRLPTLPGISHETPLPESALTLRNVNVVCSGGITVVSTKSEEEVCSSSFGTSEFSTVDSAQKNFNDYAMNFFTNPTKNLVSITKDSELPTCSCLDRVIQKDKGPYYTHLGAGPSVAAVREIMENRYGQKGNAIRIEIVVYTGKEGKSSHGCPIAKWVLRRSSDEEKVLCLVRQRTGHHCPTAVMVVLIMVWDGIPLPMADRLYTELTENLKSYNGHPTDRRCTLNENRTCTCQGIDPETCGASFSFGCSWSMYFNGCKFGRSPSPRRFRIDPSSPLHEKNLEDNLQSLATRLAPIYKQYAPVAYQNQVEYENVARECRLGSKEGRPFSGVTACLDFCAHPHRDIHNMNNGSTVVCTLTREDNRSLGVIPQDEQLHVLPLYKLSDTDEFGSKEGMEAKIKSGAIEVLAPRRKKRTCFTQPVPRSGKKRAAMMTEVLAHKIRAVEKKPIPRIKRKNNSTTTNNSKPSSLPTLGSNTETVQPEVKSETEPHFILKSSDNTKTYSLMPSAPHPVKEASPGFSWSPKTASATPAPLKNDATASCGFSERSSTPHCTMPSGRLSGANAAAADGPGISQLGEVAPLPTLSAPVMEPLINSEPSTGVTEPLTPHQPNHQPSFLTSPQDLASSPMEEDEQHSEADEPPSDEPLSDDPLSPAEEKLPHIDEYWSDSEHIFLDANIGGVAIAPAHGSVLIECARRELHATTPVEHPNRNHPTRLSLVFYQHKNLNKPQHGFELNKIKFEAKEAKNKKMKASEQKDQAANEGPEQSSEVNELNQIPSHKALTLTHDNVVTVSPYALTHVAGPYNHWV

The target in assay [3] is T1, Methylcytosine dioxygenase TET1. Description: Inhibition of N-terminal 3xFlag-tagged human TET1 catalytic domain (E1418 to V2136 residues) expressed in Sf9 cells using 5-methylcytosine as substrate at 100 uM preincubated for 10 mins followed by DNA-cofactor addition and measured after 30 mins by Alphascreen assay relative to control. Particulars: time 40.0 min.
The species named for assay [4] is Homo sapiens. Particulars: dose 100.0 µM, time 20.0 min.

A value given as a limit tells only on which side of the number the result lay.

The term EC50 denotes the concentration at which the effect is half-maximal. A low value points to greater potency. A word on the inhibition: it is the share of the control response that was lost under treatment.

Consider `O=C(O)CNC(=O)c1c(O)n(C2CCCCC2)c(=O)n(C2CCCCC2)c1=O`, for which, in assay [1], the half-maximal effective concentration (EC50) is more than 1000 µM.
On to `O=c1c(-n2ccnn2)c[nH]n1-c1cc(N2CCOCC2)ncn1` [MOLIDUSTAT], for which the inhibition (in the assay filed under Homo sapiens [2]; in assay [3]; in the assay filed under Homo sapiens [4]) was less than 20% throughout.

(Values after ChEMBL document CHEMBL5335800, “Focused Screening Identifies Different Sensitivities of Human TET Oxygenases to the Oncometabolite 2-Hydroxyglutarate” (J Med Chem, 2024).)
